Data from BigSolDB 2.1.

In the case of Cc1ccc(N)c([N+](=O)[O-])c1, the solubility (mole fraction) (in methanol, 310.65 K) is reported as 0.0248 and the solubility (mole fraction) (in n-propanol, 308.15 K) is reported as 0.0301.
